Measurements: article PMC4411898, “Impact of kinesin Eg5 inhibition by 3,4-dihydropyrimidin-2(1H)-one derivatives on various breast cancer cell features” (BMC Cancer, 2015)

What was measured:
MCF-7 cells = assay: CFSE proliferation assay, MCF-7; type: cell-based, human; conditions: 72 h, IC50 concentration of each compound
Method: (§1) For proliferation assays, cells were treated with IC50 concentrations of each compound. Adherent and floating cells were harvested at the same tube and pelleted by centrifugation at 300 g for 5 minutes and stained. Data acquisition of these two fractions put together was performed on a FACSCalibur flow cytometer using CellQuest software and analysed using the FloJo Software. […] After adhesion, cells were treated with DHPMs or maintained in culture medium only (control) for 72 h. The percentage of proliferative cells was calculated based on the CFSE fluorescence profile analysis of the tested samples compared to that of the fixed undivided control cells (treated with 10 μM of colchicine) using the FlowJo software.

MDA-MB-231 cells = assay: CFSE proliferation assay, MDA-MB-231; type: cell-based, human; conditions: 72 h, IC50 concentration of each compound
Method: as §1

Q: Which “Inhibition of cell proliferation, MCF-7” value (MCF-7 cells) does the source give for `CC1(C)CC(=O)C2=C(C1)NC(=S)NC2c1cccc(O)c1` (centres unmarked) [Compound 4bt, Dimethylenastron] here?
A: Approximately 50%

Q: And the “Inhibition of cell proliferation, MDA-MB-231” value (MDA-MB-231 cells)?
A: Approximately 50%
